In US20070110714A1 (priority 2003, published 2007):

Experiments:
[1] = tested on: Monocyte-derived DCs from HCV-infected patients (HCV-DC); assay: MICA/B expression in stimulated DC by flow cytometry (HCV-DC); assay type: cell-based, human; conditions: HCV-DC stimulated 24 hours with cytokine at day 6
Excerpt: (§1) 15 healthy volunteers and 20 chronic HCV-infected patients were used as test subjects. […] Serum alanine amino transferase (ALT)level was periodically measured, and HCV-infected patients were classified into two groups depending on the extent of necrotic inflammatory hepatic disease. Patients (n=10) showing persistent or fluctuant ALT increase were defined to be included in CH-1 group, and other patients (n=10) persistently showing normal ALT for 2 years or more were defined to be included in CH-2 group. Monocyte-derived DCs were produced from peripheral vein blood of the healthy volunteers and chronic HCV-infected patients. […]
(§2) DCs (5×10^5) were incubated at 4° C. for 30 minutes together with an anti-MICA/B monoclonal antibody (6D4) (Science 279: 1737, 1998). […] The cells were analyzed by flow cytometory using FACScan system (BD-Pharmingen), and the data were analyzed using CELL Quest (trade name) software.
Whether MICA/B is induced by various cytokines or not was investigated in DCs derived from healthy donors and HCV-infected patients having or not having ALT abnormality. […] Then, MICA/B expression was analyzed by flow cytometry. […]
Next, N-DC and HCV-DC were stimulated for 24 hours with 50 ng/ml IL-15 in the presence or absence of an anti-IFNa/βR neutralization antibody (30 μg/mL), then, MICA/B expression was analyzed by flow cytometry. […]

[2] = tested on: Monocyte-derived DCs from healthy donors (N-DC); assay: MICA/B expression in stimulated DC by flow cytometry (N-DC); assay type: cell-based, human; conditions: N-DC stimulated 24 hours with cytokine at day 6
Excerpt: as §1, §2
Whether MICA/B is induced by various cytokines or not was investigated in DCs derived from healthy donors and HCV-infected patients having or not having ALT abnormality. […] Then, MICA/B expression was analyzed by flow cytometry.
N-DC was cultured for 24 hours together with 1000 U/ml IFNa in the presence or absence of an anti-IL-15 antibody (30 μg/mL) or an anti-IL-15Ra neutralization antibody (30 μg/mL), then, MICA/B expression was analyzed by flow cytometry. […]

IFNβ: interferon beta (Toray Industries)
MICA/B expression [1]: did not express MICA/B
MICA/B expression [2]: express MICA/B
